The structures appear in SMILES notation. The list shows a part of the results, in another mix than the full data. Some results for these compounds are left out of this collection, so the calls shown say nothing about other tests. Active and inactive are the calls of the source.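 How the source made its calls: active means replicate-average signal at least 3 plate SD below neutral wells, shown as high inhibition, flagging enzyme-inhibiting false positives; inactive means the rest.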

The experiment concerns Beta-galactosidase (Escherichia coli), counter-screen for EBI2 antagonists. The experiment in a line: E. coli beta-galactosidase enzyme inhibition, confirmation, counter-screen for EBI2 antagonist project, biochemical, luminescence, single concentration (AID 652176).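 Further: 0% = DMSO wells with enzyme and 100% = wells lacking enzyme; higher means stronger loss of beta-gal luminescence.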 Conditions: purified beta-galactosidase, luminescent Galacton Star, 15 min; at 5 µM; hits give high values.
On to `CCCCC(CC)C(=O)N1CCN(C/C=C/c2ccccc2)CC1` (stereo unspecified), for which the inhibition was inactive: -11.1%.

For the origin of these results see PubChem BioAssay AID652176 (Sanford-Burnham Center for Chemical Genomics, 2013).
